Data taken from ChEMBL document CHEMBL1212898 (J Med Chem, 2010).

Amino acid sequences for entries named in this document (tags omitted).
UniProt P23977, whole entry: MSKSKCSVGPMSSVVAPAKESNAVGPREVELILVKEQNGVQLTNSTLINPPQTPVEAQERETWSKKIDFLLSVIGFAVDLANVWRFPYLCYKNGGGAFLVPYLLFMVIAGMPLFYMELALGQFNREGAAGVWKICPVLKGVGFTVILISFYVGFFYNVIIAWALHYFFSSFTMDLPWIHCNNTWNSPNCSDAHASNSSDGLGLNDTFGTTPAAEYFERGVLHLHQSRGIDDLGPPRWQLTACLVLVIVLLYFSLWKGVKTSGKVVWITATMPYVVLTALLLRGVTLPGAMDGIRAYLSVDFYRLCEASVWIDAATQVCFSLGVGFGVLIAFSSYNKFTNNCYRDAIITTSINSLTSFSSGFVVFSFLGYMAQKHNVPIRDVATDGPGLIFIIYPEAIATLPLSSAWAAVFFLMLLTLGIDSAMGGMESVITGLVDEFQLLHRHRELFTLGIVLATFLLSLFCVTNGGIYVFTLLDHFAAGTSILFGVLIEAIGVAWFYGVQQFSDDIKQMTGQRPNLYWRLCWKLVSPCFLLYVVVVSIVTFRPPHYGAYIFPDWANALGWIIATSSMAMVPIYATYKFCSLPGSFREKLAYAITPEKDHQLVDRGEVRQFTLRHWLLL

Target: Sodium-dependent dopamine transporter (Rattus norvegicus, UniProt P23977)
Assay: Displacement of [3H]WIN-35428 from DAT in rat caudate-putamen by scintillation counting
Format: tissue-based

SMILES	Ki [µM]
CN(C)CCCC1(c2ccc(F)cc2)OCc2cc(C#N)ccc21 (racemic) [CITALOPRAM]	9.27
CN(C)CCC[C@@]1(c2ccc(F)cc2)OCc2cc(C#N)ccc21 [ESCITALOPRAM]	8.15
